The list shows a part of the results, in another mix than the full data. Active and inactive are the calls of the source.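 Rule for the calls: active = mean inhibition of at least 50% after viability correction, with every replicate also passing that limit; inconclusive = mean reaches 50% but only one of two replicates passes; inactive = the rest.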
Assay: EWS/Fli-driven NR0B1 reporter inhibitors, primary screen, A673 cells, NR0B1 luciferase, luminescence, MLPCN library (AID 651661);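 note: firefly luciferase signal divided by Alamar Blue viability fluorescence both relative to DMSO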
Details: viability-normalised, at 12.6 µM, active compounds read high

Structure (SMILES)	inhibition
CN1CCC(Nc2ccc(F)c(Cl)c2)CC1	inactive: -0.857%
NN(c1ccccc1)C1CCN(CCc2ccccc2)CC1	inactive: -3.84%
O=C(O)C1(Nc2ccccc2)CCN(Cc2ccccc2)CC1	inactive: -1.31%
CC(C)(C)OC(=O)N1CCC(Nc2ccccc2)CC1	inactive: 5.5%
O=c1[nH]c2ccccc2n1C1CCN(C(c2cc3ccccc3o2)c2nnnn2C2CCCC2)CC1 (stereo not drawn)	inactive: -16.6%
CCCOc1ccc(C(=O)NCC2(N(C)C)CCCCC2)cc1	inactive: 4.77%
COc1cccc(C(=O)N(c2cc(C)cc(C)c2)C2CCN(C(=O)OC(C)(C)C)CC2)c1	inactive: 8.12%
COc1cc(OC)cc(C(=O)NCC2(N3CCOCC3)CCCCC2)c1	inactive: 8.32%
COc1cccc(C(c2nnnn2C2CCCC2)N2CCC(n3c(=O)[nH]c4ccccc43)CC2)c1OC (stereo not drawn)	inactive: 20%
CN1CCC(Nc2ccc(Cl)cc2)CC1	inactive: -4.68%
CCC(c1nnnn1C1CCCCC1)N1CCC(n2c(=O)[nH]c3ccccc32)CC1 (stereo not drawn)	inactive: 16.7%
COc1cccc(C(c2nnnn2C2CCCCC2)N2CCC(n3c(=O)[nH]c4ccccc43)CC2)c1OC (stereo not drawn)	inactive: 11.8%
CC(=O)N(c1ccccc1)C1CCNCC1	inactive: 3.49%
COc1cc(OC)cc(C(=O)NCC2(N3CCCCC3)CCCCC2)c1	inactive: 2.61%
O=c1[nH]c2ccccc2n1C1CCN(C(c2ccnc3ccccc23)c2nnnn2C2CCCCC2)CC1 (stereo not drawn)	inactive: 6.01%
Fc1ccccc1NC1CCN(Cc2ccccc2)CC1	inactive: -3.04%
Cc1ccc(C(=O)NCC2(N3CCCCC3)CCCCC2)o1	inactive: -3.68%
Cc1ccc(NC2(C#N)CCN(Cc3ccccc3)CC2)cc1	inactive: -1.6%
COc1ccc(C(c2nnnn2C2CCCCC2)N2CCC(n3c(=O)[nH]c4ccccc43)CC2)cc1 (stereo not drawn)	inactive: -12.4%
CC(C)(C)n1nnnc1C(c1ccnc2ccccc12)N1CCC(n2c(=O)[nH]c3ccccc32)CC1 (stereo not drawn)	inactive: 10.3%
Cc1ccccc1NC1(C#N)CCN(Cc2ccccc2)CC1	inactive: 9.74%
CN(C)c1ccc(C(=O)NCC2(N3CCCCC3)CCCCC2)cc1	inactive: 4.29%
Cn1c(=O)[nH]cc(N(CCCl)CCCl)c1=O	inactive: 2.1%
O=C(NCC1(N2CCCCC2)CCCCC1)c1ccco1	inactive: 4.3%
N#Cc1ccc(C(=O)NCC2(N3CCCCC3)CCCCC2)cc1	inactive: -9.37%

Structure (SMILES)	inhibition
CC(C)(C)OC(=O)N1CCC(N(C(=O)c2ccccc2)c2ccc(Cl)cc2)CC1	inactive: 4.82%
CN(C)C1(CNC(=O)c2cccc(C#N)c2)CCCCC1	inactive: -0.692%
O=c1[nH]c2ccccc2n1C1CCN(C(c2ccccc2)c2nnnn2C2CCCC2)CC1 (stereo not drawn)	inactive: 4.28%
CCCN1CCC(Nc2cc(OC)cc(OC)c2)CC1	inactive: 8.55%
Cc1cc(N(CCCl)CCCl)ccc1C=O	inactive: 12.4%
C/C(N)=N\P(=O)(Oc1ccccc1)Oc1ccccc1	inactive: 4.16%
CC(C)(C)n1nnnc1C(c1cccc2ccccc12)N1CCC(n2c(=O)[nH]c3ccccc32)CC1 (stereo not drawn)	inactive: 20.4%
COc1cc(C(=O)NCC2(N3CCOCC3)CCCCC2)cc(OC)c1C	inactive: 1.05%
CCCCn1nnnc1C(c1ccccc1)N1CCC(n2c(=O)[nH]c3ccccc32)CC1 (stereo not drawn)	inactive: -9.04%
O=C(NCC1(N2CCOCC2)CCCCC1)c1cc(Br)ccc1Cl	inactive: 5.3%
O=c1[nH]c2ccccc2n1C1CCN(C(c2cccs2)c2nnnn2C2CCCCC2)CC1 (stereo not drawn)	inactive: -5.31%
O=c1[nH]c2ccccc2n1C1CCN(C(c2ccnc3ccccc23)c2nnnn2C2CCCC2)CC1 (stereo not drawn)	inactive: 15.9%
COc1ccc(C(=O)NCC2(N3CCOCC3)CCCCC2)cc1OC	inactive: 4.92%
CCOC(=O)N1CCC(Nc2ccc(C)cc2)CC1	inactive: -7.83%
COc1cccc(C(c2nnnn2C(C)(C)C)N2CCC(n3c(=O)[nH]c4ccccc43)CC2)c1OC (stereo not drawn)	inactive: 7.59%
O=c1[nH]c2ccccc2n1C1CCN(C(c2cccs2)c2nnnn2C2CCCC2)CC1 (stereo not drawn)	inactive: 7.15%
CCCCn1nnnc1C(c1cccc(OC)c1OC)N1CCC(n2c(=O)[nH]c3ccccc32)CC1 (stereo not drawn)	inactive: 1.6%
CC(C)c1ccc(NC2CCN(C(=O)OC(C)(C)C)CC2)cc1	inactive: -79.5%
CN(C)c1cccc(C(=O)NCC2(N3CCCCC3)CCCCC2)c1	inactive: 5.88%
COc1ccc(CN(CCCl)CCCl)cc1Cl	inactive: 0.227%
O=C(NCC1(N2CCOCC2)CCCCC1)c1cc(F)c(F)cc1Cl	inactive: 3.07%
CCC(c1nnnn1C(C)(C)C)N1CCC(n2c(=O)[nH]c3ccccc32)CC1 (stereo not drawn)	inactive: -8.27%
COc1cc(OC)c(C(=O)NCC2(N(C)C)CCCCC2)cc1OC	inactive: -2.24%
CCCCn1nnnc1C(c1ccnc2ccccc12)N1CCC(n2c(=O)[nH]c3ccccc32)CC1 (stereo not drawn)	inactive: -3.35%
CN1CCC(Nc2cccc(F)c2)CC1	inactive: 10.2%

Structure (SMILES)	inhibition
O=C(NCC1(N2CCCCC2)CCCCC1)c1cncc(Br)c1	inactive: 3.75%
COc1ccc(C(c2nnnn2C2CCCC2)N2CCC(n3c(=O)[nH]c4ccccc43)CC2)cc1 (stereo not drawn)	inactive: 14.8%
CCCOc1ccc(C(=O)NCC2(N(C)C)CCCCC2)cc1OC	inactive: -7.08%
Cc1ccc(C(=O)NCC2(N(C)C)CCCCC2)o1	inactive: 2.16%
O=C(NCC1(N2CCCCC2)CCCCC1)c1ccc(OC(F)F)cc1	inactive: -0.244%
CC(C)(C)n1nnnc1C(c1ccccc1OC(F)(F)F)N1CCC(n2c(=O)[nH]c3ccccc32)CC1 (stereo not drawn)	inactive: -4.27%
O=c1[nH]c2ccccc2n1C1CCN(C(c2ccccc2OC(F)(F)F)c2nnnn2C2CCCC2)CC1 (stereo not drawn)	inactive: 3.53%
CCN1CCC(Nc2ccc(Cl)cc2)CC1	inactive: 25.3%
O=C(NCC1(N2CCCCC2)CCCCC1)c1cccc([N+](=O)[O-])c1	inactive: -19%
CSc1ccc(C(=O)NCC2(N3CCOCC3)CCCCC2)cc1	inactive: 4.23%
O=C(NCC1(N2CCCCC2)CCCCC1)c1cccc(C(F)(F)F)c1	inactive: -12%
COc1cc(C(=O)NCC2(N3CCCCC3)CCCCC2)ccc1OC(F)F	inactive: -11.4%
COc1ccc(NC2CCN(C(=O)OC(C)(C)C)CC2)cc1	inactive: 0.393%
CC(C)c1ccc(C(=O)NCC2(N3CCOCC3)CCCCC2)cc1	inactive: -15.4%
CN1CCN(CCOC(=O)C(O)(c2ccccc2)c2ccccc2)CC1	inactive: -4.88%
CCCCn1nnnc1C(c1cccc2ccccc12)N1CCC(n2c(=O)[nH]c3ccccc32)CC1 (stereo not drawn)	inactive: -6.77%
O=C1CCN(Cc2ccccc2)CC1	inactive: 4.22%
CC(C)(C)n1nnnc1C(c1ccccc1)N1CCC(n2c(=O)[nH]c3ccccc32)CC1 (stereo not drawn)	inactive: 12.9%
CCOc1ccc(C)cc1CN(CCCl)CCCl	inactive: 2%
CCOC(=O)N1CCC(Nc2ccc(F)cc2)CC1	inactive: 3.39%
CCCCOc1ccc(C(=O)NCC2(N3CCOCC3)CCCCC2)cc1	inactive: -2.42%
CCCCn1nnnc1C(c1cc2ccccc2o1)N1CCC(n2c(=O)[nH]c3ccccc32)CC1 (stereo not drawn)	inactive: 34.1%
O=P1(N(CCCl)CCCl)SCCCS1	inactive: -3.62%
O=C(NCC1(N2CCCCC2)CCCCC1)c1ccc(F)cc1	inactive: -11.7%
O=c1[nH]c2ccccc2n1C1CCN(C(c2ccccc2)c2nnnn2C2CCCCC2)CC1 (stereo not drawn)	inactive: 9.04%

Structure (SMILES)	inhibition
CCOC(=O)N1CCC(Nc2cccc(C)c2)CC1	inactive: -11.5%
COc1cc(C(=O)NCC2(N(C)C)CCCCC2)ccc1OC(F)F	inactive: -5.2%
O=c1[nH]c2ccccc2n1C1CCN(C(c2cccc3ccccc23)c2nnnn2C2CCCC2)CC1 (stereo not drawn)	inactive: 13.2%
COc1ccc(C(=O)NCC2(N3CCCCC3)CCCCC2)c(OC)c1OC	inactive: -0.359%
CC(C)(C)OC(=O)N1CCC(N(C(=O)c2ccccc2)c2ccc(F)cc2)CC1	inactive: 4.7%
CCC(c1nnnn1C1CCCC1)N1CCC(n2c(=O)[nH]c3ccccc32)CC1 (stereo not drawn)	inactive: -12.3%
COc1ccc(C(=O)NCC2(N3CCCCC3)CCCCC2)cc1	inactive: -8.78%
CCCCn1nnnc1C(CC)N1CCC(n2c(=O)[nH]c3ccccc32)CC1 (stereo not drawn)	inactive: -3.96%
O=C(NCC1(N2CCCCC2)CCCCC1)c1cccs1	inactive: 0.184%
CCCCn1nnnc1C(c1cccs1)N1CCC(n2c(=O)[nH]c3ccccc32)CC1 (stereo not drawn)	inactive: 3.85%
O=C(NCC1(N2CCCCC2)CCCCC1)c1ccc(=O)[nH]c1	inactive: 1.81%
Cc1cccc(NC2(C#N)CCN(Cc3ccccc3)CC2)c1	inactive: 3.38%
CSc1ccccc1C(=O)NCC1(N2CCCCC2)CCCCC1	inactive: 2.47%
Cc1cc(C)cc(N(C(=O)c2ccccc2)C2CCN(C(=O)OC(C)(C)C)CC2)c1	inactive: 21.6%
O=C(NCC1(N2CCCCC2)CCCCC1)c1ccc(Cl)nc1	inactive: -4.66%
O=c1[nH]c2ccccc2n1C1CCN(C(c2ccccc2OC(F)(F)F)c2nnnn2C2CCCCC2)CC1 (stereo not drawn)	inactive: 19.4%
COc1ccc(Cl)cc1C(=O)NCC1(N2CCOCC2)CCCCC1	inactive: -1.35%
O=C(NCC1(N2CCCCC2)CCCCC1)c1ccc(Cl)s1	inactive: -1.47%
N#CC1(Nc2ccccc2)CCN(Cc2ccccc2)CC1	inactive: 0.16%
O=c1[nH]c2ccccc2n1C1CCN(C(c2cc3ccccc3o2)c2nnnn2C2CCCCC2)CC1 (stereo not drawn)	inactive: -3.4%
O=C(OC1CN2CCC1CC2)C1c2ccccc2Oc2ccccc21 (stereo not drawn)	inactive: -12.3%
CCCCn1nnnc1C(c1ccc(OC)cc1)N1CCC(n2c(=O)[nH]c3ccccc32)CC1 (stereo not drawn)	inactive: 4.09%
CCOC(=O)N1CCC(Nc2ccc(OC)cc2)CC1	inactive: 1.85%
